Experiment [1] is described as follows: Inhibition of PI3Kdelta in anti-CD3/CD28 stimulated human PBMC derived CD4-positive T cells assessed as reduction in cell proliferation by measuring [3H]thymidine incorporation by beta counting method.
Experiment [2] in a line: Inhibition of PI3Kdelta in human PBMC assessed as reduction in cell proliferation by measuring [3H]thymidine incorporation measured last 16 hrs of 4 days incubation by beta counting based mixed lymphocyte reaction assay. On the technique in general: Incorporation of labelled thymidine or its analogues reports DNA synthesis.
The nature of experiment [3]: Inhibition of PI3Kdelta in anti-CD3 stimulated human PBMC assessed as reduction in cell proliferation by measuring [3H]thymidine incorporation pretreated for 1 hr followed by anti-CD3 addition measured last 16 hrs of 56 hrs incubation by beta counting method.

pIC50: −log10 of the molar value.

For the molecule `CCC(=O)N1CC[C@H](Nc2ncnc3c2CN(c2cnc(OC)c(C(F)(F)F)c2)CC3)C1` [US8653092, 67], the pIC50 (commonly −log10 of the IC50, conventionally taken in molar units) in experiment [1] is 5.94; in experiment [2], 7.10; in experiment [3], 6.80.

Values taken from BindingDB's records for doi:10.1021/acsmedchemlett.7b00293 (Novartis Institutes For Biomedical Research, 2017).
